Reference: patent US5688774A (priority 1995, dated 1997)

What was measured:
rat A3 receptor [1] = target: T1, rat A3 receptor (Rattus norvegicus, UniProt P28647)
T1 sequence (P28647 1-320): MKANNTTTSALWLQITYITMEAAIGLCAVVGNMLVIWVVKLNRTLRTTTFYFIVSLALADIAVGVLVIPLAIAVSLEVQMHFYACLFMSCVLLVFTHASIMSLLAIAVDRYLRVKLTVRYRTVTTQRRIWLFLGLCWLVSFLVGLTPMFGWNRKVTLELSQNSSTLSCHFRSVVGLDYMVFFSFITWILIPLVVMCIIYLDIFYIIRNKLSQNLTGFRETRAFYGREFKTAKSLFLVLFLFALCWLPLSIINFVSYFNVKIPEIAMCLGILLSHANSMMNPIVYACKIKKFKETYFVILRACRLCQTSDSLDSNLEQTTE

rat A3 receptor [2] = target: T1, rat A3 receptor; test: Displacement of [^125 I]AB-MECA (or [^125 I]APNEA) binding from membranes of CHO cells stably transfected with rat A3 cDNA; conditions: for A2a /A3: ratio Ki (A2a) / Ki (A3); for A1 /A3 (printed Ai /A3): ratio Ki (A1) / Ki (A3)
rat A3 receptor [3] = target: T1, rat A3 receptor; design: expressed in transfected cells; host or cells: CHO cells, stably transfected; conditions: read-out: Kd for [^125 I]APNEA; assumed for Cheng-Prusoff (Zhou et al.); cited from earlier work
rat A3 receptor [4] = target: T1, rat A3 receptor; test: biochemical

Molecule	A2a /A3 (rat A3 receptor [2])	A1 /A3 (printed Ai /A3) (rat A3 receptor [2])	also measured
CSc1nc(NCc2cccc(I)c2)c2ncn(C[C@@H](O)CO)c2n1 [Compound 19b, R-N^6-(3-Iodobenzyl)-9-(2,3-dihydroxypropyl)-2-methylthioadenine]	9.2	0.16	–
CNC(=O)[C@H]1O[C@@H](n2cnc3c(NCc4cccc(NC(=O)CCN)c4)ncnc32)[C@H](O)[C@@H]1O [Compound 66, N^6-[3(β-Alanylamino)Benzyl]Adenosine-5'-Methyluronamide]	6.3	4.5	Ki (rat A3 receptor [2]): 22.9 nM
CNC(=O)[C@H]1O[C@@H](n2cnc3c(NCc4cccc(I)c4)nc(Cl)nc32)[C@@H]2OC(=S)O[C@@H]21 [Compound 46, 2-Chloro-9-(2',3'-O-Thiocarbonyl-β-D-5-Methyl-Ribofuronamido)-N^6-(3-Iodobenzyl)adenine]	71	15	–
CN(C)c1nc(NCc2cccc(I)c2)c2ncn(C)c2n1 [Compound 12, 2-Dimethylamino-N^6-(3-Iodobenzyl)-9-Methyladenine]	0.66	–	A1 /A3 (printed Ai /A3) (rat A3 receptor [1]): 0.099
CNC(=O)[C@@H]1C[C@H](F)[C@H](n2cnc3c(NCc4cccc(I)c4)nc(Cl)nc32)O1 [Compound 44, 2-Chloro-9-(2',3'-Dideoxy-2'-Fluoro-β-D-5'-Methyl-Arabinofuronamido)-N^6-(3-Iodobenzyl)adenine]	5.5	0.080	–
O=C(O)Cn1cnc2c(NCc3cccc(I)c3)ncnc21 [Compound 21, N^6-(3-Iodobenzyladenin-9-yl)acetic Acid]	–	–	Ki (rat A3 receptor [1]): 225000 ± 17000 nM
Nc1ccc(CCNc2ncnc3c2ncn3[C@@H]2O[C@H](CO)[C@@H](O)[C@H]2O)cc1I [[^125 I]APNEA, [^125 I]N^6-2-(4-aminophenyl)ethyladenosine]	–	–	Kd (rat A3 receptor [3]): 17 nM
O[C@@H]1[C@H](O)CO[C@H]1n1cnc2c(NCc3cccc(I)c3)nc(Cl)nc21 [Compound 28, 2-Chloro-9-(b-D-erythrofuranoside)-N^6-(3-iodobenzyl)adenine]	10	2.9	Ki (rat A3 receptor [4]): 276 ± 110 nM
N#CCCCn1cnc2c(NCc3cccc(I)c3)ncnc21 [Compound 22, N^6-(3-Iodobenzyl)-9-(3-Cyanopropyl)adenine]	0.10	0.032	Ki (rat A3 receptor [1]): 185000 ± 17000 nM
CNC(=O)[C@@H]1C[C@@H](O)[C@H](n2cnc3c(NCc4cccc(I)c4)nc(Cl)nc32)O1 [Compound 41b, 2-Chloro-9-(3-Deoxy-β-D-5-Methyl-Ribofuronamido)-N^6-(3-Iodobenzyl)adenine]	140	31	Ki (rat A3 receptor [1]): 32.9 ± 7.8 nM
CNC(=O)[C@@H]1CC[C@H](n2cnc3c(NCc4ccccc4)nc(Cl)nc32)O1 [Compound 40, 2-Chloro-9-(2,3-Dideoxy-β-D-5-Methyl-Ribofuronamido)-N^6 -Benzyladenine]	7.1	0.37	–
CC(C)[Si]1(C(C)C)OC[C@H]2O[C@@H](n3cnc4c(NCc5cccc(I)c5)nc(Cl)nc43)[C@H](O)[C@@H]2O[Si](C(C)C)(C(C)C)O1 [Compound 45, 2-Chloro-9-(3,5-1,1,3,3-Tetraisopropyldisiloxyl-β-D-5-Ribofuranosyl)-N^6-(3-Iodobenzyl)adenine]	> 7	5.1	–
CSc1nc(NCc2cccc(I)c2)c2ncn(C)c2n1 [Compound 16, N^6-(3-Iodobenzyl)-9-Methyl-2-Methylthioadenine]	5.5	6.3	Ki (rat A3 receptor [1]): 299 ± 74 nM
CNC(=O)[C@@H]1C[C@@H](OC(C)=O)[C@H](n2cnc3c(NCc4cccc(I)c4)nc(Cl)nc32)O1 [Compound 37, 9-(2-Acetyl-3-Deoxy-β-D-5-Methyl-Ribofuronamido)-2-Chloro -N^6-(3-Iodobenzyl)adenine]	250	12	Ki (rat A3 receptor [1]): 62.5 ± 31 nM
OCCn1cnc2c(NCc3cccc(I)c3)ncnc21 [Compound 18, N^6-(3-Iodobenzyl)-9-Hydroxyethyladenine]	0.24	–	A1 /A3 (printed Ai /A3) (rat A3 receptor [1]): 0.37
CNC(=O)[C@@H]1C[C@H](N=[N+]=[N-])[C@H](n2cnc3c(NCc4cccc(I)c4)nc(Cl)nc32)O1 [Compound 42, 2-Chloro-9-(2'-Azido-2',3'-Dideoxy-β-D-5'-Methyl-Arabinofuronamido)-N^6 (3-Iodobenzyladenine)]	4.7	0.067	–
Cn1cnc2c(NCc3cccc(I)c3)ncnc21 [Compound 3, N^6-(3-Iodobenzyl)-9-Methyladenine]	0.046	–	A1 /A3 (printed Ai /A3) (rat A3 receptor [1]): 0.12
Cn1cnc2c(NCc3cccc(I)c3)nc(Cl)nc21 [Compound 6, 2-Chloro-N^6-(3-Iodobenzyl)-9-Methyladenine]	0.053	–	A1 /A3 (printed Ai /A3) (rat A3 receptor [1]): 0.0088
CNC(=O)[C@H]1O[C@@H](n2cnc3c(NCc4cccc(NC(=O)CCNC(=O)OC(C)(C)C)c4)ncnc32)[C@H](O)[C@@H]1O [Compound 67, N^6-[3-(N-6-Boc-β-Alanylamino)Benzyl]Adenosine-5'-Methyluronamide]	42	96	Ki (rat A3 receptor [2]): 46.8 nM
9-(β-talosyl)adenine	< 1	< 1	–
CNC(=O)[C@H]1O[C@@H](n2cnc3c(NCc4cccc(NC(=O)[C@@H]5CCCN5)c4)ncnc32)[C@H](O)[C@@H]1O [Compound 65, N^6-[3-(L-Prolylamino)Benzyl]Adenosine-5'-N-Methyluronamide]	0.018	0.014	Ki (rat A3 receptor [2]): 11700 nM
CNc1nc(NCc2cccc(I)c2)c2ncn([C@@H]3OC[C@@H](O)[C@H]3O)c2n1 [Compound 29, 9-(β-D-Erythrofuranoside)-2-Methylamino-N^6-(3-Iodobenzyl)adenine]	0.049	0.0096	Ki (rat A3 receptor [4]): 69000 nM

Second part, led by results:

A2a /A3 (rat A3 receptor [2])	A1 /A3 (printed Ai /A3) (rat A3 receptor [2])	Molecule	also measured
5.8	–	CNC(=O)[C@@H]1C[C@@H](OS(C)(=O)=O)[C@H](n2cnc3c(NCc4cccc(I)c4)nc(Cl)nc32)O1 [Compound 41, 2-Chloro-9-(3-Deoxy-2-Methanesulfonyl-β-D-5-Methyl-Ribofuronamido)-N^6-(3-Iodobenzyl)adenine]	A1 /A3 (printed Ai /A3) (rat A3 receptor [1]): 0.18
< 1	< 1	CCCNc1nc(NCc2cccc(I)c2)c2ncn(C)c2n1 [Compound 13, N^6-(3 -Iodobenzyl)-9-Methyl-2-Propylaminoadenine]	–
0.070	0.0051	Cn1cnc2c(NCc3cccc(I)c3)nc(Sc3ccncc3)nc21 [Compound 17, N^6-(3-Iodobenzyl)-9-Methyl-2-(4-Pyridylthio)adenine]	Ki (rat A3 receptor [1]): 166000 ± 57000 nM
> 1	–	CNC(=O)[C@H]1C[C@@H](n2cnc3c(NCc4cccc(I)c4)ncnc32)[C@H](O)[C@@H]1O (relative stereo) [Compound 61, (±)-9-[2α,3β-Dihydroxy-4β-(N-Methylcarbamoyl)Cyclopent-1β-yl)]-N^6-(3-Iodobenzyl)-adenine]	A1 /A3 (printed Ai /A3) (rat A3 receptor [1]): 1.8
0.068	–	COc1nc(NCc2cccc(I)c2)c2ncn(C)c2n1 [Compound 15, N^6-(3-Iodobenzyl)-2-Methoxy-9-Methyladenine]	A1 /A3 (printed Ai /A3) (rat A3 receptor [1]): 0.027
–	< 1	CCCCCCNc1nc(NCc2cccc(I)c2)c2ncn(C)c2n1 [Compound 14, 2-Hexylamino-N^6-(3-Iodobenzyl)-9-Methyladenine]	–
3.7	–	CNc1nc(NCc2cccc(I)c2)c2ncn(C)c2n1 [Compound 11, N^6-(3-Iodobenzyl)-2-Methylamino-9-Methyladenine]	A1 /A3 (printed Ai /A3) (rat A3 receptor [1]): 0.67
0.080	0.14	Cn1cnc2c(NCc3cccc(I)c3)nc(N)nc21 [Compound 9, 2-Amino-N^6-(3-iodobenzyl)-9-methyladenine]	Ki (rat A3 receptor [1]): 40100 ± 5700 nM
31	18	CNC(=O)[C@H]1O[C@@H](n2cnc3c(NNc4ccccc4)ncnc32)[C@H](O)[C@@H]1O [Compound 70, 6-(N'-phenylhydrazinyl)Purine-9-β-Ribofuranoside-5'-N-Methyluronamide]	Ki (rat A3 receptor [2]): 224 nM
–	50	CNC(=O)[C@H]1O[C@@H](n2cnc3c(NOc4ccccc4)ncnc32)[C@H](O)[C@@H]1O [Compound 71]	Ki (rat A3 receptor [2]): 1350 nM
0.18	0.050	Cn1cnc2c(NCc3cccc(I)c3)nc(NN)nc21 [Compound 10, 2-Hydrazido-N^6-(3-Iodobenzyl)-9-Methyladenine]	Ki (rat A3 receptor [1]): 109000 ± 9000 nM
–	0.13	Clc1nc(NCc2cccc(I)c2)c2ncn(C3CCCO3)c2n1 (stereo not drawn) [Compound 30, 2-Chloro-N-(3-Iodobenzyl)-9-(2-Tetrahydrofuryl)-9H-Purin-6-Amine]	Ki (rat A3 receptor [4]): 3470 ± 580 nM

Where two headings read alike, the source gives them in different places.
